“Also recorded” adds a separate entry of the source.
Experiments:
U87MG cells [1] = test: Cellular cytotoxicity, Cell Counting Kit-8 (CCK-8) assay; assay type: cell-based, Human; conditions: for IC50: U87MG cells, 72 h
Experimental: (§1) Human glioma cells (U87MG) were obtained from American Type Culture Collection (ATCC; Manassas, VA, USA). Low SPARC-expressing U87MG cells, U87MG-shSPARC, were established from a previous study.
(§2) (1) U87MG and U87MG-shSPARC cells were added to 96-well plates (4000 cells/well). After overnight incubation, the cells were incubated with CDDP, HSA-CDDP at different concentrations for 72 h. Cell viability was analyzed using a Cell Counting Kit-8 (CCK-8, Dojindo Molecular Technologies, Tokyo, Japan) assay according to the manufacturer's protocols.
(2) To execute cellular cytotoxicity experiments of HSA bound with CDDPs in different numbers, U87MG cells were added to a 96-well plate (4000 cells/well) and incubated overnight. Then, the cells were incubated with HSA-CDDP(1.5), HSA-CDDP(2.3), HSA-CDDP(5.4) and HSA-CDDP(7.7) at different concentrations, respectively, for 72 hours. Cell viability was analyzed using a Cell Counting Kit-8 (CCK-8, Dojindo Molecular Technologies, Tokyo, Japan) assay according to the manufacturer's protocols.

[2] = Biodistribution of CDDP in organs and blood using ICP-MS; assay type: in vivo, mice; conditions: 72 h after last of 7 IV doses
Experimental: Normal mice were divided into 2 groups (n=4 for each group) and IV administrated with CDDP or HSA-CDDP(4.1) at the same dose and time schedule as the anti-tumor effect examination (3 mg/kg CDDP and equivalent dose of HSA-CDDP as CDDP every other day, seven times). At 72 h after the final IV administration (15 days after first IV administration), mice were euthanized and organs (brain, heart, liver, kidney, spleen, and lung) and blood were acquired and weighed.
(§3) All samples (organs, blood, and tumors) were lyophilized and we analyzed the amount of CDDP using the ICP-MS (NexION 350; Perkin-Elmer, Waltham, MA, USA) installed at the National Center for Inter-university Research Facilities (NCIRF) at Seoul National University.

U87MG tumors = test: Tumor CDDP accumulation using ICP-MS; assay type: in vivo, mice; conditions: 72 h after last of 7 IV doses
Experimental: At 72 h after the last IV administration (15 days after first administration), mice were euthanized, and the tumor was acquired.
as §3

U87MG-shSPARC cells [3] = test: Cell apoptosis, Annexin V-FITC/PI flow cytometry; assay type: cell-based, Human; conditions: 19.3 μM, 72 h, FIG. 3
Experimental: (§4) U87MG and U87MG-shSPARC cells were placed into 6-well plates (1.2×10^5 cells/well). After overnight incubation, cells were treated with CDDP, HSA-CDDP for 72 h. Cells were then harvested and co-stained with PI and Annexin V using an Annexin V-FITC apoptosis detection kit (BD, San Jose, CA, USA). The apoptosis of cells was analyzed using flow cytometry.

U87MG cells [4] = test: Cell apoptosis, Annexin V-FITC/PI flow cytometry; assay type: cell-based, Human
Experimental: as §4

U87MG tumor xenograft = test: Xenograft tumor model, anti-tumor effect in vivo
U87MG-shSPARC cells [5] = test: Cellular cytotoxicity, Cell Counting Kit-8 (CCK-8) assay; assay type: cell-based, Human; conditions: 72 h, CCK-8, n=5, Table 1
Experimental: as §1, §2

[6] = tested on: U87MG-shSPARC tumor xenograft; test: Xenograft tumor model, anti-tumor effect in vivo; set-up: species or system BALB/c nude mice
U87MG cells [7] = test: Confocal microscopy cellular uptake of FNR648-HSA-CDDP; assay type: cell-based, Human; conditions: U87MG vs U87MG-shSPARC cells, 2 h at 37° C., n=5, p<0.001
Experimental: (§5) We conjugated HSA with FNR648 fluorescence dye following the procedure described in our previous publication. For FNR648 dye labeling to HSA-CDDP, we used the same method as that used for HSA. First, HSA-CDDP was modified using dibenzocyclooctyne (DBCO)-NHS. DBCO-HSA-CDDP was reacted with FRN648 dye at a molar ratio of 1:1 for 30 min at 37° C. Fluorescence labeled HSA-CDDP was purified using PD-10 columns (GE Healthcare, Buckinghamshire, UK) and eluted with PBS.
(§6) Cellular uptake of fluorescence labeled HAS or HSA-CDDP(4.1) followed the same procedure described in our previous publication. We incubated cells with FNR648-HSA or FNR648-HSA-CDDP for 2 h at 37° C. In the exogenous SPARC treatment group, human SPARC (5 μg/mL) and each compound (FNR648-HSA or FNR648-HSA-CDDP) were co-incubated for 2 h at 37° C. Five randomized images were acquired from all tests to quantify FNR648-HSA or FNR648-HSA-CDDP uptake by the cells. In each group, the average signal intensity of FNR648-HSA or FNR648-HSA-CDDP was divided by the number of DAPI-positive cells, which represented the number of viable cells in the image. This ratio was considered as cellular uptake of each group and used to quantify cellular uptake of each material.

[8] = Biosafety: body weight and blood biochemical analysis; assay type: in vivo, mice; conditions: overall conclusion of biosafety study
Experimental: After centrifugation at 4° C. for 20 min, the plasma was collected for blood biochemical analysis. The concentrations of AST, ALT, BUN, and creatinine were analyzed at DKKorea (Seoul, Korea).

U87MG-shSPARC cells [9] = test: Confocal microscopy cellular uptake of FNR648-HSA-CDDP; assay type: cell-based; conditions: co-treatment with human SPARC 5 μg/mL, 2 h
Experimental: as §5, §6

[10] = CCK-8, n=6, Table 2 (CDDP number-dependent HSA)

## HSA-CDDP(1.5)
U87MG cells [1]; [10]
  IC50: ~101 µM

## HSA-CDDP(2.3)
U87MG cells [1]; [10]
  IC50: ~55.2 µM

## HSA-CDDP(4.1)
[2]
  accumulation in the liver: highly accumulated in the liver
[2]; brain, heart, liver, kidney, spleen, lung
  accumulation of CDDP in organs: all organs except the brain showed higher accumulation of CDDP
[2]; normal mice, ICP-MS
  blood distribution: higher blood distribution than CDDP
U87MG tumors; FIG. 6B
  accumulation of CDDP, U87MG vs U87MG-shSPARC tumors: U87MG tumors showed a higher accumulation of CDDP than U87MG-shSPARC tumors
U87MG tumors; U87MG tumors, p<0.05
  U87MG tumor accumulation of CDDP: significantly higher than the CDDP group; also recorded: significantly increased CDDP accumulation than the CDDP group
U87MG-shSPARC cells [3]
  apoptosis rate: 8.8%
U87MG cells [4]; U87MG cells, HSA-CDDP 19.3 μM vs CDDP 4.9 μM
  apoptotic cell percentage compared with CDDP: higher apoptotic cell percentage than CDDP
U87MG cells [4]; U87MG, 19.3 μM, 72 h, FIG. 3
  apoptosis rate: 23.2%
U87MG cells [4]; different concentrations, FIG. 4B
  apoptosis induction: induced apoptosis in a dose-dependent manner
U87MG tumor xenograft; U87MG tumor model vs PBS group, FIG. 5E
  survival rate: prolonged survival time than the PBS group
U87MG tumor xenograft; U87MG tumor model, 12 days after first drug treatment, 3 mg/kg CDDP equivalent IV every other day 7 times, p<0.001
  tumor growth: significantly reduced tumor growth than the PBS group
U87MG tumor xenograft; U87MG tumor xenograft model, 3 mg/kg CDDP equivalent IV 7 times
  Median survival: 20 days
U87MG cells [1]; U87MG and U87MG-shSPARC cells, CCK-8, FIG. 2B
  toxicity toward cells: dose-dependent toxicity
U87MG cells [1]; CCK-8, n=5, Table 1
  IC50: 11.5 ± 0.173 µM
U87MG-shSPARC cells [5]
  IC50: ~59.3 µM
[6]; U87MG-shSPARC tumor model, 26 days after first drug treatment, 3 mg/kg CDDP equivalent IV every other day 7 times
  tumor growth: no difference in tumor growth to PBS
[6]; U87MG-shSPARC tumor xenograft model, 3 mg/kg CDDP equivalent IV 7 times
  Median survival: 32 days
U87MG cells [7]
  cellular uptake: higher uptake of HSA-CDDP(4.1) in U87MG cells than U87MG-shSPARC cells
[8]
  nephrotoxicity in vivo: reduced the nephrotoxicity of CDDP
U87MG-shSPARC cells [9]
  cellular uptake with exogenous SPARC: highly accumulated in U87MG-shSPARC cells

## HSA-CDDP(5.4)
U87MG cells [1]; [10]
  IC50: 37.64 ± 0.14 µM

## HSA-CDDP(7.7)
U87MG cells [1]; [10]
  IC50: 37.3 ± 0.15 µM
